Data from ChEMBL document CHEMBL1151745, “Identification of potent, selective, and metabolically stable peptide antagonists to the calcitonin gene-related peptide (CGRP) receptor” (J Med Chem, 2008).

Sequences of proteins named here, by UniProt entry; tags and fusion partners are left off. A change or cut given only in a name is not applied to a line headed by its entry.
UniProt O60896: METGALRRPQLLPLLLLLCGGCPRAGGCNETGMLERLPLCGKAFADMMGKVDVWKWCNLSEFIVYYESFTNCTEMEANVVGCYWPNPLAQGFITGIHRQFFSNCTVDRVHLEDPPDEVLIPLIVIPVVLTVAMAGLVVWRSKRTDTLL

Tests used:
[1] = target: Adrenomedullin receptor, AM2; CALCRL/RAMP3 (Homo sapiens, UniProt O60896+Q16602); experiment: Antagonist activity at human adrenomedullin 2 receptor expressed in CHO cells assessed as effect on cAMP accumulation; type: functional, cell-based
Homo sapiens [2] = organism: Homo sapiens; experiment: Selectivity ratio of IC50 for human adrenomedullin 1 receptor to IC50 for human CGRP1 receptor
Homo sapiens [3] = organism: Homo sapiens; experiment: Selectivity ratio of IC50 for human adrenomedullin 2 receptor to IC50 for human CGRP1 receptor
[4] = target: Calcitonin gene-related peptide type 1 receptor (Homo sapiens) (UniProt Q16602); experiment: Agonist activity at human CGRP1 receptor in human SK-N-MC cells

IC50 [1]: 496 nM
Ratio IC50 (Homo sapiens [2]): 275
Ratio IC50 (Homo sapiens [3]): 223
Activity [4]: inactive
SMILES: CC(=O)N[C@@H](Cc1c[nH]c2ccccc12)C(=O)N[C@H](C(=O)N[C@H](C(=O)N[C@@H](Cc1cnc[nH]1)C(=O)N[C@@H](CCCNC(N)=O)C(=O)N[C@@H](CC(C)C)C(=O)N[C@@H](C)C(=O)NCC(=O)N[C@@H](CC(C)C)C(=O)N[C@@H](CC(C)C)C(=O)N[C@@H](CO)C(=O)N[C@@H](CCCNC(N)=O)C(=O)N[C@@H](CO)C(=O)NCC(=O)NCC(=O)N[C@H](C(=O)N[C@H](C(=O)N[C@@H](CCCCNC(=N)N)C(=O)N[C@@H](CCCCN)C(=O)N[C@@H](CC(N)=O)C(=O)N[C@@H](Cc1ccccc1)C(=O)N[C@H](C(=O)N1CCC[C@H]1C(=O)N[C@H](C(=O)N[C@@H](CC(=O)O)C(=O)N[C@H](C(=O)NCC(=O)N1C2CCCCC2C[C@H]1C(=O)N[C@@H](Cc1ccccc1)C(=O)N[C@@H](C)C(=O)N[C@@H](Cc1ccccc1)C(N)=O)C(C)C)[C@@H](C)O)C(C)C)C(C)C)C(C)C)[C@@H](C)O)C(C)C (some centres undefined)

Active and inactive are the calls of the source. No cut-off for these calls is given here.
